The experiment concerns the target T1, 1-phosphatidylinositol 4,5-bisphosphate phosphodiesterase delta-1 (Mus musculus) (UniProt Q8R3B1).
T1 sequence (whole entry): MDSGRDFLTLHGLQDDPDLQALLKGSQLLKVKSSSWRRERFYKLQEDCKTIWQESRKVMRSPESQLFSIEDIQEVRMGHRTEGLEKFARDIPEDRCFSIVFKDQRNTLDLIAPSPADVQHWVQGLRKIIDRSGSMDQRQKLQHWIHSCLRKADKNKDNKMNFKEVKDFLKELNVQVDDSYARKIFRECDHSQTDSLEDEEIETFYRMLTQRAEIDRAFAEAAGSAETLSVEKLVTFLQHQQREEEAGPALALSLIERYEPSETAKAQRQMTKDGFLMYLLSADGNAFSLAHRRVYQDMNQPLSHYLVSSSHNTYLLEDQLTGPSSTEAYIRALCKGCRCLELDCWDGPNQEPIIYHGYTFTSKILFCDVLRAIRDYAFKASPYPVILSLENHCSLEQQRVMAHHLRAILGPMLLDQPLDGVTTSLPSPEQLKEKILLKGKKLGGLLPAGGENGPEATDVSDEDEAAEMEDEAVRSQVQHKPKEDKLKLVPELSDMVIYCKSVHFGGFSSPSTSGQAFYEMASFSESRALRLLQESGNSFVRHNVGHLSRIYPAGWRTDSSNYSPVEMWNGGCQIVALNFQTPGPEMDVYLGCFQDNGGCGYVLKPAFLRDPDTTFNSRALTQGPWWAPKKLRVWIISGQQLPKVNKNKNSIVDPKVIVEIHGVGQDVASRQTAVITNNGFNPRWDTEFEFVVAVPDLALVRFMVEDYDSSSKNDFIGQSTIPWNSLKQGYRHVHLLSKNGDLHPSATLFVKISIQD
As to conditions: BaF3, dose <= 500.0 nM, time 6.0 hrs.

With `CN1CCN(Cc2ccc(NC(=O)[C@@H]3CCN(c4ccc5ncc(-c6ccccn6)n5n4)C3)cc2C(F)(F)F)CC1`, the inhibition entry was “Dose-Dependent Effect”.

The values above are taken from ChEMBL document CHEMBL5385866, “Switch type I to type II TRK inhibitors for combating clinical resistance induced by xDFG mutation for cancer therapy” (Eur J Med Chem, 2023).
